Assays:
patients with AKI [1] = tested on: patients with AKI; set-up: species or system human; settings: in vivo
patients with AKI [2] = settings: human, in vivo
all ICU patients = tested on: all ICU patients; set-up: key: Y has clinical trials and/or literature support; N has no clinical trials and/or literature support; settings: cited from earlier work
ICU patients with AKI = tested on: ICU patients with AKI; set-up: key: Y has clinical trials and/or literature support; N has no clinical trials and/or literature support; settings: cited from earlier work
patients with AKI [3] = settings: human, in vivo; remark: listed apart in the source

In the case of `CN1CC[C@]23c4c5ccc(O)c4O[C@H]2C(=O)CC[C@H]3[C@H]1C5` [Hydromorphone], the Coefficient (patients with AKI [1]) is listed as −0.024, the “Death rate in eICU database” value (patients with AKI [2]) is listed as 141.20 per 1,000 patients and the “Reported for protecting effect in all ICU patients” value (all ICU patients) is listed as “N”. The “Reported for protecting effect in ICU patients with AKI” value (ICU patients with AKI) was “N” and the “Death rate in MIMIC III database” value (patients with AKI [3]) was 166.18 per 1,000 patients.

— US20240009173A1, “Use of 5-HT3-Targeting Drugs for Treatment of Acute Kidney Injury” (priority 2020, published 2024)
